Assay results reported in PubChem BioAssay AID686940 (The Scripps Research Institute Molecular Screening Center, 2013).
This is a selection; strong and weak results do not stand in their true shares. Activity calls are given as the source filed them.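 How the source made its calls: active means inhibition above a per-plate cutoff, mean inhibition of test wells between control levels plus 3 SD (cut at about 38% in these data); inactive means the rest.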

Sequences of proteins named here, by UniProt entry; tags and fusion partners are left off.
UniProt P24468, whole entry: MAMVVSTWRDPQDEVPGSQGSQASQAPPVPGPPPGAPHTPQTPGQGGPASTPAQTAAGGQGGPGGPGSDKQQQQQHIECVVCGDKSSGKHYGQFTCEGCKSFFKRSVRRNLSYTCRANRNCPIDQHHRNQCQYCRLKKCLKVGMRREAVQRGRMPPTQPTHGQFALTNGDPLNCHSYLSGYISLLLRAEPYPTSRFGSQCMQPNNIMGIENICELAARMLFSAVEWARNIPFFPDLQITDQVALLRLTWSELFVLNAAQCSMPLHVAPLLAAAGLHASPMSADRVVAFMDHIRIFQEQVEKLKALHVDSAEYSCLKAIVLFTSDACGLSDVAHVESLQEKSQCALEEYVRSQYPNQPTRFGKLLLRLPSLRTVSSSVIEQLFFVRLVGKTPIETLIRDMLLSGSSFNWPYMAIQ

Each molecule was assayed against COUP transcription factor 2 (Homo sapiens) (UniProt P24468) (assay: NR2F2 transcriptional activity inhibitors, primary screen, cell-based, luciferase reporter, HEK293T, luminescence (AID 686940;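 further: cells cotransfected with COUP-TFII expression vector driving the NGFI-A reporter; 0% = median of COUP-TF2 test wells and 100% = reporter-only cells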)). Conditions: HEK293T NGFI-A luciferase reporter, at 8.6 µM, active compounds read high.

Row | Structure (SMILES) | inhibition
1 | CN1CCC(Nc2ccc(F)c(Cl)c2)CC1 | inactive: -9.39%
2 | CCOc1ncccc1C(=O)NCC1(N2CCOCC2)CCCCC1 | inactive: -4.32%
3 | CCCOc1ccc(C(=O)NCC2(N(C)C)CCCCC2)cc1 | inactive: -9.57%
4 | O=c1[nH]c2ccccc2n1C1CCN(C(c2cc3ccccc3o2)c2nnnn2C2CCCC2)CC1 (stereo not given) | inactive: -3.53%
5 | O=C(O)C1(Nc2ccccc2)CCN(Cc2ccccc2)CC1 | inactive: 8.41%
6 | NN(c1ccccc1)C1CCN(CCc2ccccc2)CC1 | inactive: 10.6%
7 | CC(C)(C)OC(=O)N1CCC(Nc2ccccc2)CC1 | inactive: 3.37%
8 | CCC(CO)(C(=O)OC1CN2CCC1CC2)c1ccccc1 (stereo not given) | inactive: -11%
9 | COc1cccc(C(c2nnnn2C2CCCC2)N2CCC(n3c(=O)[nH]c4ccccc43)CC2)c1OC (stereo not given) | inactive: 19%
10 | COc1cc(OC)cc(C(=O)NCC2(N3CCOCC3)CCCCC2)c1 | inactive: 6.22%
11 | COc1cccc(C(=O)N(c2cc(C)cc(C)c2)C2CCN(C(=O)OC(C)(C)C)CC2)c1 | inactive: 18.2%
12 | CN1CCC(Nc2ccc(Cl)cc2)CC1 | inactive: 13.2%
13 | O=c1[nH]c2ccccc2n1C1CCN(C(c2ccnc3ccccc23)c2nnnn2C2CCCCC2)CC1 (stereo not given) | inactive: -4.39%
14 | COc1cc(OC)cc(C(=O)NCC2(N3CCCCC3)CCCCC2)c1 | inactive: -11.6%
15 | CCC(c1nnnn1C1CCCCC1)N1CCC(n2c(=O)[nH]c3ccccc32)CC1 (stereo not given) | inactive: 11.1%
16 | CC(=O)N(c1ccccc1)C1CCNCC1 | inactive: -6.7%
17 | COc1cccc(C(c2nnnn2C2CCCCC2)N2CCC(n3c(=O)[nH]c4ccccc43)CC2)c1OC (stereo not given) | inactive: 34.8%
18 | Cc1ccc(NC2(C#N)CCN(Cc3ccccc3)CC2)cc1 | inactive: -23.1%
19 | Fc1ccccc1NC1CCN(Cc2ccccc2)CC1 | inactive: 2.65%
20 | Cc1ccc(C(=O)NCC2(N3CCCCC3)CCCCC2)o1 | inactive: 6.35%
21 | CC(C)(C)n1nnnc1C(c1ccnc2ccccc12)N1CCC(n2c(=O)[nH]c3ccccc32)CC1 (stereo not given) | inactive: -3.05%
22 | COc1ccc(C(c2nnnn2C2CCCCC2)N2CCC(n3c(=O)[nH]c4ccccc43)CC2)cc1 (stereo not given) | inactive: -21.7%

Row | Structure (SMILES) | inhibition
23 | CCN1CCC(Nc2cccc(F)c2)CC1 | inactive: 0.02%
24 | Cc1ccccc1NC1(C#N)CCN(Cc2ccccc2)CC1 | inactive: -7.28%
25 | Cn1c(=O)[nH]cc(N(CCCl)CCCl)c1=O | inactive: -15.3%
26 | CN(C)c1ccc(C(=O)NCC2(N3CCCCC3)CCCCC2)cc1 | inactive: 13.4%
27 | O=C(NCC1(N2CCCCC2)CCCCC1)c1ccco1 | inactive: 16.2%
28 | CC(C)(C)OC(=O)N1CCC(N(C(=O)c2ccccc2)c2ccc(Cl)cc2)CC1 | inactive: 19.1%
29 | N#Cc1ccc(C(=O)NCC2(N3CCCCC3)CCCCC2)cc1 | inactive: 16%
30 | CCCN1CCC(Nc2cc(OC)cc(OC)c2)CC1 | inactive: -11.2%
31 | O=c1[nH]c2ccccc2n1C1CCN(C(c2ccccc2)c2nnnn2C2CCCC2)CC1 (stereo not given) | inactive: 0.52%
32 | Cc1cc(N(CCCl)CCCl)ccc1C=O | inactive: -12.2%
33 | c1ccc(CN2CCC(Nc3ccccc3)CC2)cc1 | inactive: 0.9%
34 | C/C(N)=N\P(=O)(Oc1ccccc1)Oc1ccccc1 | inactive: 0.51%
35 | CN(C)C1(CNC(=O)c2cccc(C#N)c2)CCCCC1 | inactive: -0.36%
36 | CC(C)(C)n1nnnc1C(c1cccc2ccccc12)N1CCC(n2c(=O)[nH]c3ccccc32)CC1 (stereo not given) | inactive: -9.99%
37 | O=C(NCC1(N2CCOCC2)CCCCC1)c1cc(Br)ccc1Cl | inactive: -2.52%
38 | COc1cc(C(=O)NCC2(N3CCOCC3)CCCCC2)cc(OC)c1C | inactive: -17.9%
39 | CCCCn1nnnc1C(c1ccccc1)N1CCC(n2c(=O)[nH]c3ccccc32)CC1 (stereo not given) | inactive: -5.42%
40 | O=c1[nH]c2ccccc2n1C1CCN(C(c2ccnc3ccccc23)c2nnnn2C2CCCC2)CC1 (stereo not given) | inactive: 6.08%
41 | COc1ccc(C(=O)NCC2(N3CCOCC3)CCCCC2)cc1OC | inactive: -0.65%
42 | NC(=O)C1(Nc2ccccc2)CCN(Cc2ccccc2)CC1 | inactive: 0.35%
43 | O=c1[nH]c2ccccc2n1C1CCN(C(c2cccs2)c2nnnn2C2CCCCC2)CC1 (stereo not given) | inactive: 17%
44 | N/C(=N\O)c1c(N)no[n+]1[O-] | inactive: 9.71%

Row | Structure (SMILES) | inhibition
45 | COc1cccc(C(c2nnnn2C(C)(C)C)N2CCC(n3c(=O)[nH]c4ccccc43)CC2)c1OC (stereo not given) | inactive: 11.3%
46 | CCOC(=O)N1CCC(Nc2ccc(C)cc2)CC1 | inactive: 6.94%
47 | CCCCn1nnnc1C(c1cccc(OC)c1OC)N1CCC(n2c(=O)[nH]c3ccccc32)CC1 (stereo not given) | inactive: 20.1%
48 | O=c1[nH]c2ccccc2n1C1CCN(C(c2cccs2)c2nnnn2C2CCCC2)CC1 (stereo not given) | inactive: -5.55%
49 | O=C(OC1CN2CCC1CC2)C1c2ccccc2C=Cc2ccccc21 (stereo not given) | inactive: 1.63%
50 | CN(C)c1cccc(C(=O)NCC2(N3CCCCC3)CCCCC2)c1 | inactive: 8.33%
51 | COC(=O)C1(Nc2ccccc2)CCN(Cc2ccccc2)CC1 | inactive: -14.5%
52 | COc1ccc(CN(CCCl)CCCl)cc1Cl | inactive: -4.36%
53 | CC(C)c1ccc(NC2CCN(C(=O)OC(C)(C)C)CC2)cc1 | inactive: -30.3%
54 | CCCCn1nnnc1C(c1ccnc2ccccc12)N1CCC(n2c(=O)[nH]c3ccccc32)CC1 (stereo not given) | inactive: 7.14%
55 | CCC(c1nnnn1C(C)(C)C)N1CCC(n2c(=O)[nH]c3ccccc32)CC1 (stereo not given) | inactive: -6.99%
56 | O=C(NCC1(N2CCOCC2)CCCCC1)c1cc(F)c(F)cc1Cl | inactive: -24.6%
57 | COc1cc(OC)c(C(=O)NCC2(N(C)C)CCCCC2)cc1OC | inactive: 10.4%
58 | O=C(NCC1(N2CCCCC2)CCCCC1)c1cncc(Br)c1 | inactive: 6.92%
59 | CN1CCC(Nc2cccc(F)c2)CC1 | inactive: 6.97%
60 | CCCOc1ccc(C(=O)NCC2(N(C)C)CCCCC2)cc1OC | inactive: 1.54%
61 | Cc1ccc(C(=O)NCC2(N(C)C)CCCCC2)o1 | inactive: -7.39%
62 | COc1ccc(C(c2nnnn2C2CCCC2)N2CCC(n3c(=O)[nH]c4ccccc43)CC2)cc1 (stereo not given) | inactive: -6.58%
63 | O=C(NCC1(N2CCCCC2)CCCCC1)c1ccc(OC(F)F)cc1 | inactive: -4.8%
64 | CC(C)(C)n1nnnc1C(c1ccccc1OC(F)(F)F)N1CCC(n2c(=O)[nH]c3ccccc32)CC1 (stereo not given) | inactive: -1.04%
65 | CSc1ccc(C(=O)NCC2(N3CCOCC3)CCCCC2)cc1 | inactive: 4.28%
66 | O=C(NCC1(N2CCCCC2)CCCCC1)c1cccc([N+](=O)[O-])c1 | inactive: -10.2%

Row | Structure (SMILES) | inhibition
67 | N#CC1(Nc2ccccc2)CCN(CCc2ccccc2)CC1 | inactive: 12.3%
68 | O=c1[nH]c2ccccc2n1C1CCN(C(c2ccccc2OC(F)(F)F)c2nnnn2C2CCCC2)CC1 (stereo not given) | inactive: 0.69%
69 | CCN1CCC(Nc2ccc(Cl)cc2)CC1 | inactive: -24.2%
70 | O=C(NCC1(N2CCCCC2)CCCCC1)c1cccc(C(F)(F)F)c1 | inactive: 0.5%
71 | CCCCn1nnnc1C(c1cccc2ccccc12)N1CCC(n2c(=O)[nH]c3ccccc32)CC1 (stereo not given) | inactive: 6.6%
72 | CN1CCN(CCOC(=O)C(O)(c2ccccc2)c2ccccc2)CC1 | inactive: -12.5%
73 | COc1ccc(NC2CCN(C(=O)OC(C)(C)C)CC2)cc1 | inactive: 5.76%
74 | CC(C)c1ccc(C(=O)NCC2(N3CCOCC3)CCCCC2)cc1 | inactive: -5.19%
75 | COc1cc(C(=O)NCC2(N3CCCCC3)CCCCC2)ccc1OC(F)F | inactive: -7.51%
76 | O=C(NCC1(N2CCOCC2)CCCCC1)c1cc(=O)[nH]c2ccccc12 | inactive: 13.4%
77 | CCOc1ccc(C)cc1CN(CCCl)CCCl | inactive: -12.1%
78 | O=C1CCN(Cc2ccccc2)CC1 | inactive: 3.66%
79 | CC(C)(C)n1nnnc1C(c1ccccc1)N1CCC(n2c(=O)[nH]c3ccccc32)CC1 (stereo not given) | inactive: 14.5%
80 | COc1ccc(NC2CCN(CCc3ccccc3)CC2)c(OC)c1 | inactive: 4.24%
81 | CCOC(=O)N1CCC(Nc2ccc(F)cc2)CC1 | inactive: 7.96%
82 | O=C(NCC1(N2CCCCC2)CCCCC1)c1ccc(F)cc1 | inactive: 7.91%
83 | O=P1(N(CCCl)CCCl)SCCCS1 | inactive: -7.03%
84 | CCCCn1nnnc1C(c1cc2ccccc2o1)N1CCC(n2c(=O)[nH]c3ccccc32)CC1 (stereo not given) | inactive: 6.69%
85 | CCCCOc1ccc(C(=O)NCC2(N3CCOCC3)CCCCC2)cc1 | inactive: -5.47%
86 | O=c1[nH]c2ccccc2n1C1CCN(C(c2ccccc2)c2nnnn2C2CCCCC2)CC1 (stereo not given) | inactive: -17.4%
87 | O=c1[nH]c2ccccc2n1C1CCN(C(c2cccc3ccccc23)c2nnnn2C2CCCC2)CC1 (stereo not given) | inactive: -20.9%
88 | COc1cc(C(=O)NCC2(N(C)C)CCCCC2)ccc1OC(F)F | inactive: 3.61%

Row | Structure (SMILES) | inhibition
89 | CCOC(=O)N1CCC(Nc2cccc(C)c2)CC1 | inactive: 4.91%
90 | CCCCn1nnnc1C(c1cccs1)N1CCC(n2c(=O)[nH]c3ccccc32)CC1 (stereo not given) | inactive: 5.73%
91 | CCCCn1nnnc1C(CC)N1CCC(n2c(=O)[nH]c3ccccc32)CC1 (stereo not given) | inactive: 9%
92 | O=C(NCC1(N2CCCCC2)CCCCC1)c1cccs1 | inactive: -0.77%
93 | O=C(NCC1(N2CCCCC2)CCCCC1)c1ccc(=O)[nH]c1 | inactive: 6.64%
94 | CCC(c1nnnn1C1CCCC1)N1CCC(n2c(=O)[nH]c3ccccc32)CC1 (stereo not given) | inactive: -7.24%
95 | COc1ccc(C(=O)NCC2(N3CCCCC3)CCCCC2)c(OC)c1OC | inactive: -2.14%
96 | CC(C)(C)OC(=O)N1CCC(N(C(=O)c2ccccc2)c2ccc(F)cc2)CC1 | inactive: 14.6%
97 | COc1ccc(C(=O)NCC2(N3CCCCC3)CCCCC2)cc1 | inactive: 9.23%
98 | Cc1cccc(NC2(C#N)CCN(Cc3ccccc3)CC2)c1 | inactive: -7.01%
99 | CSc1ccccc1C(=O)NCC1(N2CCCCC2)CCCCC1 | inactive: 0.96%
100 | O=C(NCC1(N2CCOCC2)CCCCC1)c1cc2ccccc2o1 | inactive: -4.06%
101 | Cc1cc(C)cc(N(C(=O)c2ccccc2)C2CCN(C(=O)OC(C)(C)C)CC2)c1 | inactive: 13.4%
102 | O=c1[nH]c2ccccc2n1C1CCN(C(c2ccccc2OC(F)(F)F)c2nnnn2C2CCCCC2)CC1 (stereo not given) | inactive: -3.42%
103 | O=C(NCC1(N2CCCCC2)CCCCC1)c1ccc(Cl)nc1 | inactive: 9.1%
104 | CCCCn1nnnc1C(c1ccc(OC)cc1)N1CCC(n2c(=O)[nH]c3ccccc32)CC1 (stereo not given) | inactive: 1.66%
105 | CCOC(=O)N1CCC(Nc2ccc(OC)cc2)CC1 | inactive: -13.1%
106 | COc1ccc(Cl)cc1C(=O)NCC1(N2CCOCC2)CCCCC1 | inactive: -1.39%
107 | O=C(OC1CN2CCC1CC2)C1c2ccccc2Oc2ccccc21 (stereo not given) | inactive: -1.9%
108 | O=c1[nH]c2ccccc2n1C1CCN(C(c2cc3ccccc3o2)c2nnnn2C2CCCCC2)CC1 (stereo not given) | inactive: -1.1%
109 | N#CC1(Nc2ccccc2)CCN(Cc2ccccc2)CC1 | inactive: 7.15%
110 | O=C(NCC1(N2CCCCC2)CCCCC1)c1ccc(Cl)s1 | inactive: -2.41%
